This data set concerns GST-CREB [GST: P08515].

As for PKA prepared from bovine heart, the Km entry is given as “Km of 17 µM”.
